Values of other authors in patent US12268726B2, “Treatment of rhinosinusitis with P-glycoprotein inhibitors” (Massachusetts Eye and Ear Infirmary, priority 2012, dated 2025).

Protein sequences, listed by entry. Tags and fused reporters are not part of them.
UniProt P08183, whole entry: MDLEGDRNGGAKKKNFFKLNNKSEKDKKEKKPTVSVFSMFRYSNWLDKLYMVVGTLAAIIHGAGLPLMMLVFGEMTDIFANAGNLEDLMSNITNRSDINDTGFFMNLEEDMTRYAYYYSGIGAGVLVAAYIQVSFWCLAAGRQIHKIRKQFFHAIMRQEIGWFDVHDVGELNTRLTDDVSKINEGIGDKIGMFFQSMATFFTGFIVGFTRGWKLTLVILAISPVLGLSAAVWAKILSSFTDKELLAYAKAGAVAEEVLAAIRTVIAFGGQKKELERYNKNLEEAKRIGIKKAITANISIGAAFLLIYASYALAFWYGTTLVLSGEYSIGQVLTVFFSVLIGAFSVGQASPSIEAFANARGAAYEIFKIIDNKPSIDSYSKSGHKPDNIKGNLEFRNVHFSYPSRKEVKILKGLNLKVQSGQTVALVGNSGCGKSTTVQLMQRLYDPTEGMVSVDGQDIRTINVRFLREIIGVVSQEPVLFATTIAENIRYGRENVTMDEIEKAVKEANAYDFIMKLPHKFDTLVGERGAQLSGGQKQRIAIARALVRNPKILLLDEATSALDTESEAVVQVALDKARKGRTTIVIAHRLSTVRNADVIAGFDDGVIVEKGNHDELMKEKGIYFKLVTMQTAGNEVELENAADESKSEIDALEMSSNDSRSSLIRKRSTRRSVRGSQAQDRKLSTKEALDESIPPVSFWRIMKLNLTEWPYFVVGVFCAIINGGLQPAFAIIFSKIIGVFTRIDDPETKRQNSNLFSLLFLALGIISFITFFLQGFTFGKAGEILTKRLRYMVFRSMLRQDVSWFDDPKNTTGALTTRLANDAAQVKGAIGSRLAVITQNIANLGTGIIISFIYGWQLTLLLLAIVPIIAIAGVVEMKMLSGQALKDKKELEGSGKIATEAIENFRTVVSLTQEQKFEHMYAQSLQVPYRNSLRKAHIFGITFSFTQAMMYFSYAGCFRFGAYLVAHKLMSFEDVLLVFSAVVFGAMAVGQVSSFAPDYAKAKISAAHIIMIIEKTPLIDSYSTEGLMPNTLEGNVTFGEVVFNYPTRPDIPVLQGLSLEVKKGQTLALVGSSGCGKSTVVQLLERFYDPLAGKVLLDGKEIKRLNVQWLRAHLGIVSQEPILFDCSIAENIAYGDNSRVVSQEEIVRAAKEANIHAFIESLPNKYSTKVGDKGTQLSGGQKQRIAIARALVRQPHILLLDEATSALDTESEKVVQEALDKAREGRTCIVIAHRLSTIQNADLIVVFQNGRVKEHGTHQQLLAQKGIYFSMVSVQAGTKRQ

Biological target: P-gp (Homo sapiens, UniProt P08183)
Conditions: Varma et al., 2003; cited from earlier work

## Cl.Cl.Cl.O[C@@H](COc1cccc2ncccc12)CN1CCN([C@@H]2c3ccccc3[C@@H]3[C@H](c4ccccc42)C3(F)F)CC1 [Zosuquidar, (2R)-1-{4-[(1aR,6r,10bS)-1,1-Difluoro-1,1a,6,10b-tetrahydrodibenzo[a,e]cyclopropa[c]cyclohepten-6-yl]piperazin-1-yl}-3-(quinolin-5-yloxy)propan-2-ol,trihydrochloride]
  potency relative to the first and second-generation P-gp inhibitors: about 10 fold
